Consider 4 compounds from ChEMBL document CHEMBL1151554, “Non thiazolidinedione antihyperglycaemic agents. 1: -Heteroatom substituted -phenylpropanoic acids” (Bioorg Med Chem Lett, 1996).

The chains behind the UniProt entries cited, without tags or fusion partners. Where a name states a change or a piece, a line headed by the entry shows the natural chain unless it says otherwise.
UniProt P37231: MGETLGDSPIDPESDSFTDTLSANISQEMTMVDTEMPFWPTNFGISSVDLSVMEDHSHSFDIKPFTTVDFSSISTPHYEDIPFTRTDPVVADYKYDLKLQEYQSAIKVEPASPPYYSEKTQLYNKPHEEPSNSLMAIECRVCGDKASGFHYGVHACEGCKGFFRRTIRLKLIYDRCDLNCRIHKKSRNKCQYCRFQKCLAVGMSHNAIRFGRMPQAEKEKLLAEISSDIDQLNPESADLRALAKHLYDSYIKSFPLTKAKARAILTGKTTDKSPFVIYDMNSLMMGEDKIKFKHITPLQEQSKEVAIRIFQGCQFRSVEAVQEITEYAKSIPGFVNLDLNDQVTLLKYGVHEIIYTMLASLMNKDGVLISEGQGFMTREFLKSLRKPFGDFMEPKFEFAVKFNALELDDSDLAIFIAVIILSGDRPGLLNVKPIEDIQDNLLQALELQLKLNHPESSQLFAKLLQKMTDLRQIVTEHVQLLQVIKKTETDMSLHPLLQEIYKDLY

pKi: −log10 of the molar value.

The target in this test is Peroxisome proliferator-activated receptor gamma (Homo sapiens, UniProt P37231).
As to `COC(Cc1ccc(OCCN(C)c2nc3ccccc3o2)cc1)C(=O)O` (centres undefined), the pKi (in general, the negative decadic logarithm of the Ki, by convention in mol/L) is 7.82.
For `COC(=O)C(Cc1ccc(OCCN(C)c2nc3ccccc3o2)cc1)SC` (centres undefined), the pKi was 6.22.
Take `COC(=O)CCc1ccc(OCCN(C)c2nc3ccccc3o2)cc1`: the pKi was 5.22.
The same measure for `CN(CCOc1ccc(CC(Cl)C(=O)O)cc1)c1nc2ccccc2o1` (centres undefined): 7.48.
